Test results taken from US20020069423A1 (priority 2000, published 2002).

System: untransfected bovine fetal fibroblasts (BFF cells)
Test: G418 drug selection (kill curve) of untransfected BFF cells
Assay type: cell-based
Details: period of ten days; 400 to 3000 ug/ml tested

## CN[C@@H]1[C@@H](O)[C@@H](O[C@@H]2[C@@H](O)[C@H](O[C@H]3O[C@H]([C@@H](C)O)[C@@H](O)[C@H](O)[C@H]3N)[C@@H](N)C[C@H]2N)OC[C@]1(C)O [G418, geneticin (G418)]
  optimal drug selection concentration producing stable, neomycin-resistant colonies: 400 µg/mL
